According to patent US20130183268A1, “DRUG COMBINATIONS WITH FLUORO-SUBSTITUTED OMEGA-CARBOXYARYL DIPHENYL UREA FOR THE TREATMENT AND PREVENTION OF DISEASES AND CONDITIONS” (BAYER HEALTHCARE LLC, priority 2010, published 2013):

Experiment: Metabolite profile, incubation of [14C]regorafenib with liver microsomes (dog)
Type: in vitro ADME, Beagle dog
Conditions: [14C]regorafenib 20 μM, liver microsomes 0.5 mg/mL, 60 min
Protocol: N-oxide (M-2), hydroxymethyl (M-3), de-methylated (M-4) and N-oxide-demethylated (M-5) metabolites of the fluoro-substituted diaryl urea of Formula (I) are shown below. They were identified as metabolites of regorafenib in vitro upon incubation with liver enzymes of various mammalian species (man, dog, rat, mouse). Studies reveal that its metabolites show high protein binding in man and animal species (data not shown). [table]

CNC(=O)c1cc(Oc2ccc(NC(=O)Nc3ccc(Cl)c(C(F)(F)F)c3)c(F)c2)ccn1 [Example 1, 4{4-[3-(4-chloro-3-trifluoromethylphenyl)-ureido]-3-fluorophenoxy}-pyridine-2-carboxylic acid methylamide]
% of radioactivity, Beagle dog: 70.8%
